Assays:
HEK293 cells = test: Non-viable cells by propidium iodide staining and flow cytometry, 72 h; format: cell-based
Description: Lipid levels are expressed as a percentage of vehicle control levels. […] All graphs show combined data from two independent experiments, each with 3 (a) or 4 (b-d) separate cell treatments, mean ± SEM. Statistical significance in (b-d) was determined by t-tests adjusted for multiple comparisons, comparing all lipids (22 lipids tested in total) at each concentration to the control group; ^+P < 0.05; ^#P < 0.01; *P < 0.001

SkM [1] = test: Lipidomic profiling of skeletal muscle (quadriceps) of mice on chow or HFD; format: in vivo; conditions: 5 mg/kg daily, 4–6 weeks
Excerpt: Male C57BL6/J mice were obtained from the Animal Resources Centre in Perth (WA, Australia). […] Treatment was commenced at the same time as mice were randomised to dietary groups. The experiments were approved by the UNSW animal care and ethics committee (ACEC 15/48B), and followed guidelines issued by the National Health and Medical Research Council of Australia.
Lipids were extracted from frozen tissue samples or cells using a two-phase procedure with methyl-tert-butyl ether (MTBE)/methanol/water (10:3:2.5, v/v/v)[67]. Frozen tissue samples (~20 mg) were homogenized in 0.2 mL methanol containing 0.01% butylated hydroxytoluene (BHT), using a Precellys 24 homogenizer and Cryolys cooling unit (Bertin Technologies) with CK14 (1.4-mm ceramic) beads. […]
Lipidomic profiling was performed on a QExactive Plus mass spectrometer with heated electrospray ionization (HESI) probe and a Dionex UltiMate 2000 LC pump (Thermo Fisher Scientific). […] Data were then exported to an Excel spreadsheet for normalisation of each lipid to its class-specific internal standard, and lipid concentrations were calculated relative to the internal standard.

SkM [2] = test system: SkM
SkM [3] = conditions: 4 weeks
CerS1 = biological target: T1, CerS1 (Homo sapiens, UniProt P27544); test: Ceramide synthase assay, HPLC-based with fluorescent NBD-dihydrosphingosine, C18:0-CoA; extracts of HEK293 cells expressing human CerS1; format: biochemical; set-up: host or cells: HEK293; conditions: selectivity
T1 sequence (P27544 1-350): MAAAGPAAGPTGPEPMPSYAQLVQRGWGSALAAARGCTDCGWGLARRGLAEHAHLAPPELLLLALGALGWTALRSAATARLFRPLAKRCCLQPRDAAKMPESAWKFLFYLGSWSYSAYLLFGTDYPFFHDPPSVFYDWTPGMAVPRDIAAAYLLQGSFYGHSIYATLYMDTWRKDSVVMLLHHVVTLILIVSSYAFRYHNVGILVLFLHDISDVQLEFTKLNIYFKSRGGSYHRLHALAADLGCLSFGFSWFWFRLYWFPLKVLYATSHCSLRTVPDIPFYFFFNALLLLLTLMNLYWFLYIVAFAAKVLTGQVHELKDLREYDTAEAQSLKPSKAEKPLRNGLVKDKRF
Description: Ceramide synthase assays were carried out using an HPLC-based assay with a fluorescent NBD-dihydrosphingosine substrate. All cell lines used for these assays were originally sourced from ATCC. […] Cells were sonicated in a Diagenode Bioruptor sonicating bath for 5 min, after which cell extracts were cleared by centrifugation at 800 × g for 10 min. Protein concentration in the supernatant was assayed using the bicinchoninic acid (BCA) assay, and the supernatant stored at −80 °C. COS cells were infected with lentiviral constructs expressing murine CerS1, 2, or 5, then homogenised as described above.
The reaction buffer consisted of 20 mM Hepes pH 7.4, 25 mM KCl, 2 mM MgCl2, 0.5 mM dithiothreitol, 0.1% fatty acid free BSA, 10 μM NBD-dihydrosphingosine and 50 μM fatty acid free BSA. C18:0-CoA was used as the fatty acyl substrate for CerS1 and CerS4; C24:1-CoA for CerS2; and C16:0-CoA for CerS5 and CerS6. All reactions were run in triplicate. […] The reaction mixture was transferred to a glass HPLC vial with 300 μL fused glass insert (Thermo Fisher Scientific) and NBD-dihydroceramide reaction products were analysed on a Thermo Scientific Surveyor HPLC connected to a Shimadzu RF-10AXL fluorescent detector (set to gain of 3). […]

IC50's for CerS2, CerS4, CerS5 and CerS6 relative to CerS1 (CerS1): at least one order of magnitude higher
Compound: C[C@@](N)(CO)CCc1ccc(OCc2ccc(Cl)c(Cl)c2)cc1 [P053, (S)-2-amino-4-(4-(3,4-dichlorobenzyloxy)phenyl)-2-methylbutan-1-ol]
concentrations inhibiting C18 ceramide synthesis relative to those required to promote apoptosis (HEK293 cells): at least one order of magnitude lower | 18:1/18:0 and 18:2/18:0 ceramide in SkM (SkM [1]): significantly reduced | citrate synthase activity (SkM [2]): increased activity | βHAD activity (SkM [2]; P = 0.06): increased activity | C24 ceramide synthase activity in SkM (SkM [3]): not associated with increased C24 ceramide synthase activity
